Measurements taken from patent US20240018110A1, “RADIOLABELED COMPOUNDS TARGETING THE PROSTATE-SPECIFIC MEMBRANE ANTIGEN” (THE UNIVERSITY OF BRITISH COLUMBIA, priority 2020, published 2024).

Amino acid sequences for entries named in this document (tags omitted).
UniProt Q04609, whole entry: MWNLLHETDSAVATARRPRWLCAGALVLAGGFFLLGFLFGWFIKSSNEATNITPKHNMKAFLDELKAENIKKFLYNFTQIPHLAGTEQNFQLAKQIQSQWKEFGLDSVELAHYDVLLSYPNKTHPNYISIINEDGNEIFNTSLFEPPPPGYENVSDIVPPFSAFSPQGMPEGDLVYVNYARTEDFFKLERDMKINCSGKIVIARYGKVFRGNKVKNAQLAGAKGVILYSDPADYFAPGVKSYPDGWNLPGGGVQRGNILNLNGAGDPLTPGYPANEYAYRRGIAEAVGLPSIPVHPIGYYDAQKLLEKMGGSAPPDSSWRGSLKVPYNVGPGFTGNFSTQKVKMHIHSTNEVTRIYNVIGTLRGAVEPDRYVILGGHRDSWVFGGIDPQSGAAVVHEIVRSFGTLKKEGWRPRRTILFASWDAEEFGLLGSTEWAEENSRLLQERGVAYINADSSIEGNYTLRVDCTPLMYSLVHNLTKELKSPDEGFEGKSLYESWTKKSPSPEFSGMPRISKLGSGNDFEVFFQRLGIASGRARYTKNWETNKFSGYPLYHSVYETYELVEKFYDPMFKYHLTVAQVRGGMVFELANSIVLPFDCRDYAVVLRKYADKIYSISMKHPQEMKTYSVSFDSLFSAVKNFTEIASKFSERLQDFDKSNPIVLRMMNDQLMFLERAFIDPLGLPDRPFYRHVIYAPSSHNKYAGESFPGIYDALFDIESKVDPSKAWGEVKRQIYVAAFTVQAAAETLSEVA

Target: PSMA (Homo sapiens, UniProt Q04609)
Experiment: In vitro competitive binding assay

## O=C(O)CCC[C@H](NC(=O)N[C@H](C(=O)O)C1CC1CCNC(=O)[C@H](Cc1c2ccccc2cc2ccccc12)NC(=O)[C@H]1CC[C@H](CNC(=O)CN2CCN(CC(=O)O)CCN(CC(=O)O)CCN(CC(=O)O)CC2)CC1)C(=O)O (single isomer, unassigned) [PD-5-131]
  Ki: > 1 µM
